Tested on: human recombinant GST-CaN
Test: Peptide/CaN interaction assay (biotinylated peptides on streptavidin beads, GST-CaN pull-down, Western blot)
Assay type: binding
Details: Fig. 1H, 10 μg N-terminally biotinylated peptide on streptavidin beads, 200 ng GST-CaN, 30 min, 4 °C, mean (n=7; APP-17mer n=3)
Excerpt: Recombinant rabbit monoclonal to APP (clone Y188; Abcam cat# ab32136; 1:5000 dilution), rabbit polyclonal to APLP1 (Proteintech cat # 12305-2-AP; 1:1000 dilution), and rabbit polyclonal to APLP2 (Proteintech cat # 15041-1-A; 1:500 dilution) were used to detect native APP family members on western blots or recombinant GFP-tagged APP family members as validation (see Fig. S1). A horseradish peroxidase (HRP)-conjugated goat anti-rabbit antibody (Sigma-Aldrich Cat# 12-348; 1:10,000 dilution) was used as secondary antibody for these western blots, while an HRP-conjugated mouse monoclonal antibody to GFP (Invitrogen cat # MA 515256HRP; 1:1000 dilution) was used to independently verify the expression of GFP or GFP-tagged APP family members. […]
Either PBS with fresh 0.1% Tween-20 and 0.1% bovine serum albumin added or a modified IP buffer (150 mM NaCl, 10 mM Hepes; 5 mM EDTA; pH 7.4) with fresh 0.5% CHAPSO and 0.1% bovine serum albumin was used for these assays. […] Following three washes (400 μl; 5 min each), complexes were eluted in 40 μl 2× Laemmli buffer, and samples were separated by SDS-PAGE and analyzed by Western blotting as above. […]

Sequence: MAGPHPVIVITGPHEE [reference compound]
- percent of CaN recovered (signal for each/signal for CaN standard * 40%): 60.61%

— article PMC11910330, “Familial Alzheimer’s disease mutations in amyloid precursor protein impair calcineurin signaling to NMDA receptors” (The Journal of Biological Chemistry, 2024)
